According to patent publication US11096979B2, “Pharmaceutical composition for preventing or treating liver diseases, containing licorice extract containing glycyrrhizin and liquiritin” (NOVAREX CO., LTD., priority 2016, dated 2021):

Tested on: cultured hepatocytes (HepG2)
Assay: Cell viability of HepG2 cells treated with single components or t-BHP
Conditions: HepG2, 3 hr and 24 hr after treatment, FIGS. 5A and 5B

**Q.** For `CC(C)(C)OO` [t-BHP, t-butyl hydroperoxide], which “hepatotoxicity depending on dose and treatment time” value is on record?
**A.** The value was “dose-dependent hepatotoxicity”.
